The assay has as its target T1, Tryptophan 5-hydroxylase 1 (Homo sapiens, UniProt P17752).
T1 sequence (P17752 whole entry): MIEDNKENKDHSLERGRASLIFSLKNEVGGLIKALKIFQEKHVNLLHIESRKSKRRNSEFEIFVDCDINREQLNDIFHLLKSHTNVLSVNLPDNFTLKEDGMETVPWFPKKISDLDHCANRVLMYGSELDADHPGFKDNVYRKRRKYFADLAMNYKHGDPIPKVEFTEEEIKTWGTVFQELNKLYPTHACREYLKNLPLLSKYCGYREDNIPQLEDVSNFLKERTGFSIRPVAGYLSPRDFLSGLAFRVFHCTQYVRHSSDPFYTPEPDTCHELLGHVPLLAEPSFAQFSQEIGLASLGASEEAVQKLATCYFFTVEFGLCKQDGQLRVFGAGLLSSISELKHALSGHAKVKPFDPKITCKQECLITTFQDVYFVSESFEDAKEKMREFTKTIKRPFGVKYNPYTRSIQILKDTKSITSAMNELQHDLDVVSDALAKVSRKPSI
As to the kind of experiment: Inhibition of TPH1.

SMILES strings stand for the structures.

A word on the IC50: it is the midpoint of a concentration-inhibition curve. A higher IC50 goes with weaker potency. As for `C[C@@H](Nc1nc(N)nc(-c2ccc(C[C@H](N)C(=O)O)cc2)n1)c1ccc2ccccc2c1`, half-maximal inhibition (IC50) was put at 26 nM.

For the origin of these results see ChEMBL document CHEMBL1155012, “Modulation of peripheral serotonin levels by novel tryptophan hydroxylase inhibitors for the potential treatment of functional gastrointestinal disorders” (J Med Chem, 2008).
